Source: ChEMBL document CHEMBL1134503, “Synthesis, antifolate, and antitumor activities of classical and nonclassical 2-amino-4-oxo-5-substituted-pyrrolo[2,3-d]pyrimidines” (J Med Chem, 2001)

By UniProt entry, the sequences of proteins in these tests, tags left out.
UniProt C3SWJ7, whole entry: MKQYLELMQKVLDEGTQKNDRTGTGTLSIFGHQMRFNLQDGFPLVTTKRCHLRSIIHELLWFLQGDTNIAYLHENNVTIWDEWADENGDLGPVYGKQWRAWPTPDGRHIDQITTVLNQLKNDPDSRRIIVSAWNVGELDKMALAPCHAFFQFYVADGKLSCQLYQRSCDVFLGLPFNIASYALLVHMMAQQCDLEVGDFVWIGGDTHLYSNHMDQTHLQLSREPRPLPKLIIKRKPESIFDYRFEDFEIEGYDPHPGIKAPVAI

Tests used:
[1] = target: T1, Bifunctional dihydrofolate reductase-thymidylate synthase (Toxoplasma gondii, UniProt Q07422); assay: Inhibitory activity against Toxoplasma gondii dihydrofolate reductase
T1 sequence (Q07422 whole entry): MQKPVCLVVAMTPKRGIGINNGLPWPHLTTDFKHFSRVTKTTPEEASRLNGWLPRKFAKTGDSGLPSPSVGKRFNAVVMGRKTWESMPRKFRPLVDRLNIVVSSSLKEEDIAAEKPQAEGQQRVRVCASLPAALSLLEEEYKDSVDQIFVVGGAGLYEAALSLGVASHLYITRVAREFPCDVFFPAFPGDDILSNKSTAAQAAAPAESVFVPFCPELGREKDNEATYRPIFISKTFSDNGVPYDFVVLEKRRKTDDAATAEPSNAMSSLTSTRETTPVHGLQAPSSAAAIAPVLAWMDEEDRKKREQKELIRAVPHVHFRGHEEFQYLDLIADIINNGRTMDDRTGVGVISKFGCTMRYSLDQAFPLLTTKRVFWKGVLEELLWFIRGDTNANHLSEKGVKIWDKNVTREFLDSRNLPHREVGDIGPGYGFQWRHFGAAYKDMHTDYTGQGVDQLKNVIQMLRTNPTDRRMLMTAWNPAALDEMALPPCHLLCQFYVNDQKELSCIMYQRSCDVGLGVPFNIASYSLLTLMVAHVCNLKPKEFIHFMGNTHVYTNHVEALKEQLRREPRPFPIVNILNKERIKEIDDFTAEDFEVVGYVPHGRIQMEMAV

Thymidylate synthase = Thymidylate synthase (Escherichia coli, UniProt C3SWJ7); assay: Inhibitory activity against Escherichia coli thymidylate synthase

Nc1nc2[nH]cc(CCc3ccc(C(=O)N[C@@H](CCC(=O)O)C(=O)O)cc3)c2c(=O)[nH]1 [PEMETREXED]
IC50 [1]: 2.3 µM
IC50 (Thymidylate synthase): 110 µM
